# Data: patent publication US20040106173A1 (UNIVERSITY OF MIAMI, published 2004)
# T1: HA-tagged Cdc23p (pRep41-HA3cdc23) (fission yeast, UniProt O42709 1-593)
# T1 construct: also called HA-Cdc23p; HA-Cdc23
# T1 sequence (looked up): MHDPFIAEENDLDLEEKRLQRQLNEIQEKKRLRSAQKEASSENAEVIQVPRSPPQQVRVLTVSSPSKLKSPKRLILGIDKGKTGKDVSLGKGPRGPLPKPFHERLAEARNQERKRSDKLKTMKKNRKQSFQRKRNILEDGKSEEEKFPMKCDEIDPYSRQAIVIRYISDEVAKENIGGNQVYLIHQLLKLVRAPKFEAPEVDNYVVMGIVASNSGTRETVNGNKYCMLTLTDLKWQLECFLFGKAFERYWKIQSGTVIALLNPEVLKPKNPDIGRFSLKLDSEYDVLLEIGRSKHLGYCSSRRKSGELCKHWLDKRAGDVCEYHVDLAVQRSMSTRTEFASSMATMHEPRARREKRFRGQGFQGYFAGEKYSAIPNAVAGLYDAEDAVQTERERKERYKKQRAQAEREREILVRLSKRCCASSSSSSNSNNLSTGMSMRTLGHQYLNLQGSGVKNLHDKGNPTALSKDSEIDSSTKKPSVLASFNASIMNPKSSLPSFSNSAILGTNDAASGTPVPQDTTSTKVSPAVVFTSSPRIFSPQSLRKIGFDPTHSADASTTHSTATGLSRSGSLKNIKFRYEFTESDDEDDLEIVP
# T2: HA-tagged Bot1p (HA3-bot1, pRep41-HA3bot1) (Schizosaccharomyces pombe, UniProt O60096 1-315)
# T2 construct: also called HA-Bot1p
# T2 sequence: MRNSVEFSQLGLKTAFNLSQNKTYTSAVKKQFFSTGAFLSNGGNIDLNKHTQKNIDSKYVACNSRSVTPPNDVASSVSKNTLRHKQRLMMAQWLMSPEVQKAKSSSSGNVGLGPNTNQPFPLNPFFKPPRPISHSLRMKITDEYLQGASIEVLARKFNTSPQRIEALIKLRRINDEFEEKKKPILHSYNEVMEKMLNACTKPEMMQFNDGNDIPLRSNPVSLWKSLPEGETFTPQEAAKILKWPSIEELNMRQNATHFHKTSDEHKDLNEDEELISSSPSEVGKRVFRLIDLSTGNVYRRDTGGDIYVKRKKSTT
# B1: GST alone (pESP-GST) (other, UniProt P08515 1-218, looked up)
# chain: MSPILGYWKIKGLVQPTRLLLEYLEEKYEEHLYERDEGDKWRNKKFELGLEFPNLPYYIDGDVKLTQSMAIIRYIADKHNMLGGCPKERAEISMLEGAVLDIRYGVSRIAYSKDFETLKVDFLSKLPEMLKMFEDRLCHKTYLNGDHVTHPDFMLYDALDVVLYMDPMCLDAFPKLVCFKKRIEAIPQIDKYLKSSKYIAWPLQGWQATFGGGDHPPK
# Assays:
# [1] = molecular target: T1, HA-tagged Cdc23p (pRep41-HA3cdc23); assay: co-purification on glutathione resin from fission yeast extracts, co-expressed
# Procedure: (§1) Immunoblot analysis was performed using standard methodology. For co-purification experiments, ade6-704 ura4-D18 leu1-32 h-cells co-expressing HA-tagged Bot1p and GST-tagged Orb6p (FV17p), or cells co-expressing HA-tagged Bot1p and GST alone (FV16p) as a control were cultured, for 15 hr at 32° C. in the absence of thiamine. HA₃-bot1 was moderately expressed from an attenuated nmt1 promoter (10). GST-tagged fusions were constructed using the pESP plasmid (Qiagen), which also contains a nmt1 promoter. Cells were then re-suspended in HB buffer and broken using a FastPrep FP120 bead beater (Savant). Extracts were spun at 15K rpm for 15 min. GST-tagged Orb6 or GST alone was purified using glutathione beads (Molecular Probes).
# (§2) Glutathione beads were washed three times in HB buffer and then eluted. […]
# (§3) To confirm this interaction between Bot1p and Orb6p in fission yeast extracts, HA-Bot1p and GST-Orb6p were co-expressed in fission yeast cells, and GST-Orb6p was purified using glutathione-coupled resin. […] Furthermore, neither GST nor GST-Orb6p co-purified with HA-tagged Cdc23p, when co-expressed as an additional control for specificity.
# [2] = molecular target: T2, HA-tagged Bot1p (HA3-bot1, …); assay: co-purification on glutathione resin from fission yeast extracts, anti-HA immunoblot
# Procedure: as §1, §2, §3
binder,measurement,setting,value
B1,binding result,[1],no binding
same,binding result,[2],no binding
